Screening results as filed in PubChem.
LMNA splice mod: changes lamin A minigene splicing in HeLa cells; 200,000 tested, 0.01% active; HeLa LMNA splicing GFP/RFP minigene ratio, 48 h; Potency, µM (highest dose often 46.1 µM), hits mostly inhibitors; active means well fitted inhibition curve with a large enough effect in the signal ratio, with a control signal flat, not every such curve was filed as active; inconclusive means small, poorly fitted or top-dose-only effect, or effect the other way, or a change in a side signal; the % refers to the signal ratio
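S3 HeLa cells stably expressing lamin A-EGFP splicing minigene plus DsRed2, 600 cells/well, 48 h compound exposure at 37C. Laser-scanning cytometry; analysed as GFP (500-530 nm)/RFP (575-640 nm) total intensity ratio; 0.5% DMSO vehicle.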
KDM4E inh: blocks human JMJD2E demethylase activity; B2RXH2; JMJD2E catalytic domain, FDH-coupled NADH fluorescence (FDH is formaldehyde dehydrogenase); Potency, µM (top dose mostly 57.1 µM), most hits filed as inhibitors; 230,000 tested, 1.6% active; AID 2147; active means well fitted inhibition curve with a large enough effect, not every such curve was filed as active; inconclusive means small, poorly fitted or top-dose-only effect, or another doubt; inactive means no such curve, though single readings can be large or run the other way; further: nearly all actives have a fitted effect of over 50% in size
ALDH1A1 inh: ALDH1A1 (human) enzyme inhibition; Potency, µM (series often up to 75.3 µM), most hits filed as inhibitors; 220,000 tested, 7.3% active; P00352; Purified ALDH1A1, NADH fluorescence, propionaldehyde substrate; AID 1030; active means well fitted inhibition curve with a large enough effect, not every such curve was filed as active; inconclusive means small, poorly fitted or top-dose-only effect, or another doubt; inactive means no such curve, though single readings can be large or run the other way
Sfp PPTase inh: blocks B. subtilis Sfp PPTase activity | Q9F4F7 | Biochemical Sfp PPTase activity, qHTS | Potency, µM, hits mostly inhibitors | 310,000 tested, 3.5% active;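 further: the enzyme is Sfp with the accession as filed and its product quenches rhodamine fluorescence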
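With Hepes-Na pH 7.6 buffer containing 10 mM MgCl2, Sfp (15 nM) modified BHQ-2-YbbR (12.5 uM) using rhodamine-CoA (5 uM). Two reads 30 minutes apart at 525/598 nm yielded each well's rate.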
miR-21 reporter: raises the signal of a miR-21 reporter | Potency, µM (doses to about 38.3 µM) | HeLa miR-21 FLuc reporter, luciferase, 48 h | AID 2288 | 340,000 tested, under 10 active; active = well fitted rising curve with a large enough effect; inconclusive = small, poorly fitted or top-dose-only effect; inactive = no such curve, though single readings can be large or run the other way;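 also: miR-21 action dims this reporter so a rising signal means less miR-21 action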
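Compounds were titrated across several concentrations (up to approximately 40 uM) and incubated 48 hours with HeLa miR-21-FLuc reporter cells (miR-21 target sequence downstream of FLuc, endogenous miR-21). Readout was firefly luciferase luminescence after lytic detection reagent.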
G9a block: inhibitors of human histone lysine methyltransferase G9a; Q96KQ7; Potency, µM (top dose mostly 102 µM), hits mostly inhibitors; G9a H3K9 monomethylation, AlphaScreen, 2 h; 350,000 tested, 8.8% active; further: nearly all actives have a fitted effect of over 75% in size
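Step 1: enzyme (final 20 nM) with compound, 15 min RT. Step 2: substrate peptide 500 nM and SAM 20 uM, 2 h RT. Step 3: anti-H3K9me1 antibody and AlphaScreen beads, 10 min, then plate read.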
Numbers stand for hits; n = inactive; u = inconclusive; x = no result given; [ ] = dose if it differs, or a comment. Compounds with a hit are over-represented: about 13% of the library has one in this group of screens. Unless noted, the call rests on the fitted dose curve; in most records, active means well fitted curve in the direction sought with a large enough effect; inconclusive means small, poorly fitted or top-dose-only effect, or another doubt; inactive means no such curve, though single readings can be large; an effect the other way counts as inactive or inconclusive.

SMILES	LMNA splice mod	KDM4E inh	ALDH1A1 inh	Sfp PPTase inh	miR-21 reporter	G9a block
c1cc(-c2nsc(-c3ccncc3)n2)ccn1	x	n	x	45µM	n	n
CCC1N=C(SC)NC(C)=C1C(=O)c1ccccc1 (configuration not stated)	x	n	u	n	n	4µM
CCOC(=O)C1=C(C)NC(SC)=NC1c1ccc(OC)cc1 (configuration not stated)	n	u	u	n	n	u
N#CC1=C(N)Nc2ncnn2C1c1ccc([N+](=O)[O-])cc1 (configuration not stated)	x	u	x	n	n	u
N#CC1=C(N)SC(N)=C(C#N)C1c1ccc([N+](=O)[O-])cc1	u	n	10µM	5µM	n	8.9µM
N#CC1=C(N)SC(N)=C(C#N)C1c1ccc(C(F)(F)F)cc1	n	13µM	25µM	n	n	2.5µM
CCc1ccc(C2C(C#N)=C(N)OC3=C2C(=O)CCC3)s1 (configuration not stated)	x	n	u	n	n	n
CCc1ccc(C2C(C#N)=C(N)SC(N)=C2C#N)cc1	n	u	11µM	u	n	8.9µM
CCc1ccc(C2C(C#N)=C(N)SC(N)=C2C#N)s1	n	u	u	n	n	40µM
CCc1ccc(C2C(C#N)=C(N)Oc3cc(N)ccc32)cc1 (configuration not stated)	x	x	x	n	n	u
CCN(CC)CCCN(C(=O)c1cccc(C)c1)c1nc(-c2ccc(OC)cc2)cs1	x	x	x	n	n	n[0.501 µM]
COc1ccccc1N(C)C(=O)c1cc(S(=O)(=O)N2CCCC2)cn1C	x	x	x	n	n	n
Cc1ccc(C2C(C#N)=C(N)SC(N)=C2C#N)o1	u	u	u	13µM	n	1.6µM
CCOC(=O)C1=C(C)OC(N)=C(C#N)C1c1ccc(C)o1 (configuration not stated)	n	n	u	n	n	u
c1ccc(OCCOCCN2CCOCC2)cc1	n	n	n	n	n	n
COc1ccc(C=NCCCN2CCOCC2)cc1	n	u	20µM	n	n	n
CCCCOc1ccc(OCCCN2CCOCC2)cc1	u	n	n	n	n	n[2.33 µM]
CCC(=O)c1ccc(OCCN2CCOCC2)cc1	n	n	n	n	n	n[12.7 µM]
CCC(C)c1ccc(OCCCCN2CCOCC2)cc1 (configuration not stated)	n	n	u	n	n	10µM
COc1ccc(OCCOCCN2CCOCC2)cc1	n	n	n	n	n	11µM
CCOc1ccc(OCCOCCN2CCOCC2)cc1	n	u	n	n	n	2µM
COc1ccc(S(=O)(=O)N2CCN(C(=O)N3CCOCC3)C2C)cc1 (configuration not stated)	x	x	x	n	n	n
CC(C)(C)NC[C@H](O)CSc1nc(-c2ccc(C(N)=O)s2)cs1	x	x	x	n	x	u
Cc1ccc(NP(=O)(c2ccc(N(C)C)cc2NC(=O)c2cccs2)N2CCOCC2)cc1Cl (configuration not stated)	n	u	u	n	n	79µM
Cc1ccc(NP(=O)(c2ccc(N(C)C)cc2NC(=O)c2cccs2)N2CCOCC2)cc1 (configuration not stated)	n	n	n	n	n	u
SMILES	LMNA splice mod	KDM4E inh	ALDH1A1 inh	Sfp PPTase inh	miR-21 reporter	G9a block
CCn1ncc([N+](=O)[O-])c1C(=O)Nc1c(C)nn(Cc2ccc(F)cc2)c1C	x	n	n	n	n	n
NS(=O)(=O)c1ccc(NC(=O)COc2ncnc3sccc23)cc1	x	n	x	n	n	n
O=C(NC(=S)N(Cc1ccccc1)c1ccccn1)C1CC1	n	u	u	n	n	14µM
CCN(C(=S)NC(=O)C1CC1)c1ccccc1	x	x	x	u	n	35µM
COc1ccc(-c2nc(SC(CC(=O)NCCO)c3cccs3)n[nH]2)cc1 (configuration not stated)	n	n	n	n	n	45µM
CN(Cc1ccccc1)C1=CC(=[N+]2CCCCC2)CC(C)(C)C1	x	n	x	n	u	32µM
Cc1ccc(C(=O)c2sc(Nc3ccccc3)c(S(=O)(=O)c3ccccc3)c2N)c(C)c1	u	x	x	x	n	n
C/C(=N/O)c1ccccn1	n[9.22 µM]	18µM	n	40µM	n	n
CC(=O)c1ccccn1	x	x	u	x	x	n[12.7 µM]
Cc1cccc(C#N)c1NC1=CC(=O)CC(C)(C)C1	n	u	7.9µM	n	n	u
Cc1cc(C)c(NC2=CC(=O)CC(C)(C)C2)c(C#N)c1	n	n	u	n	n	n[12.7 µM]
O=C(NCC1CCCO1)c1onc(CSc2ccccc2)c1C(=O)O (configuration not stated)	n[0.0737 µM]	n	n	n	n	n[0.501 µM]
CC(C)c1ccc(SCc2noc(C(=O)NCC3CCCO3)c2C(=O)O)cc1 (configuration not stated)	n[0.0737 µM]	n	u	100µM	n	n[0.501 µM]
Clc1ccccc1CN1CCc2nc(N3CCN(c4ncccn4)CC3)ncc2C1	n	x	x	x	n	u
CCOc1ccc2c(c1)NC(c1ccc(OCC)c(OCC)c1)=NC(c1ccc(F)cc1)=N2	x	x	x	x	n	11µM
Cc1[nH]c(C)c(S(=O)(=O)NCCc2ccc(S(N)(=O)=O)cc2)c1C(=O)N1CCCC1	x	x	x	n	n	u
O=C(CCCCn1c(=O)c2ccccc2n(Cc2ccc(F)cc2Cl)c1=O)NCCc1ccc(Cl)cc1	x	x	x	x	n	n
COc1ccc(NC(=O)CC2C(=O)N(c3cccc(OC)c3)C(=O)N2Cc2ccco2)cc1 (configuration not stated)	x	n	16µM	n	n	n
CNC1=C(N(C(C)=O)c2ccc(Br)cc2)C(=O)c2ccccc2C1=O	u	u	n	n	n	u
CC(=O)C1=C(c2ccc(Br)cc2)C(=O)c2ccccc2C1=O	u	u	n	n	u	35µM
O=C(Nc1ccc2nc(-c3ccccc3)[nH]c2c1)c1cccs1	n	n	n	n	n	u
CC(=O)Nc1ccc2nc(-c3ccco3)[nH]c2c1	x	u	u	n	n	u
O=C(Nc1ccc2nc(-c3ccc4nc[nH]c4c3)[nH]c2c1)c1cccs1	n	u	u	n	n	22µM
O=C(Nc1ccc2nc(-c3ccco3)[nH]c2c1)c1ccco1	n	n	u	45µM	n	71µM
Cc1nc2ccc(NC(=O)c3ccco3)cc2nc1C	x	u	u	n	n	n
O=C(Nc1ccc2nc(-c3ccco3)[nH]c2c1)c1cccs1	n	n	7.1µM	n	n	14µM
Cc1cc2cc(NC(=O)c3ccco3)ccc2[nH]1	n	n	22µM	n	n	n
O=C(c1cccc(F)c1)N1CCC(c2c[nH]c3ccccc23)(c2c[nH]c3ccccc23)CC1	x	x	x	x	n	n
CCc1c(C(=O)N2CCCN(C)CC2)csc1C	x	x	x	n	n	n
O=C(N/N=C/C1C(c2ccccc2)C1(Cl)Cl)c1cccc(Cl)c1 (configuration not stated)	n	n	7.1µM	n	n	n
